High-throughput results as filed in PubChem BioAssay.
Shown are actives, neighbours in structure and some others; about 4.2% of the full set was active somewhere.
ALR inh: inhibitors of human ALR sulfhydryl oxidase, primary screen, biochemical, H2O2 detection, HRP-luminol luminescence, single point. inhibition, % (concentration not given with the values). 290,000 compounds, 3.8% hits. purified ALR, DTT oxidation. AID 485317, 2010;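 active means mean and each replicate at 75% or more; inconclusive means only one of the two met; inactive means neither met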;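 further: stock transfer was 7.5 nL into about 7.5 µL; 0% = neutral wells and 100% = wells with inactivated enzyme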
MC4R ag barr: MC4R agonists recruiting beta-arrestin, primary screen, cell-based, luminescence, agonist arm of biased-ligand search. hit rate 0.98% among 360,000. activation, % at 8.9 µM. AID 540308, 2011. Melanocortin receptor 4 (Homo sapiens), P32245. U2OS MC4R beta-arrestin complementation; percent of melanotan II response, DMSO zero;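 active means activation above a per-plate cutoff, the mean activation of sample wells on that plate plus 3 SD, cut at about 8% in these data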
HDAC3 inh: HDAC3 deacetylase inhibitors, primary screen, biochemical, fluorescence, cell-free homogeneous. Histone deacetylase 3 (Homo sapiens), O15379. recombinant HDAC3, fluorogenic peptide/trypsin coupled. inhibition, % at 8.3 µM. hit rate 0.15% among 320,000; in the data active means inhibition above about 26%, passing the limit was not always enough; inconclusive means no clear call, values can overlap the other calls
UUG fidelity: yeast start codon fidelity modulation | S. cerevisiae UUG-firefly luciferase reporter, luminescence/redox ratio | activity score, % at 18.7 µM | hit rate 0.13% among 350,000 | AID 602363;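 active means replicate mean at a twofold rise or more, about +100% in these data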;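 further: firefly luciferase made from a UUG start codon reports start codon fidelity; reporter light over untreated wells divided by growth signal over untreated wells; some hits fall short of that in this replicate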
MC4R antag cAMP: MC4R antagonists of cAMP signaling, primary screen, cell-based, TR-FRET, antagonist arm of biased-ligand search; hit rate 0.48% among 360,000; Melanocortin receptor 4 (Homo sapiens), P32245; inhibition, % at 6.5 µM; AID 540295, 2011; MC4R-expressing cells, MTII-stimulated cAMP, LANCE TR-FRET;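 active means inhibition above its plate's cutoff, the mean of tested wells on that plate plus 3 SD, cut at about 29% in these data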;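 further: 0% = Melanotan II alone and 100% = Melanotan II plus saturating MCL0020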
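material = U2OS cells stably expressing human melanocortin 4 receptor (MC4R) | also added = Melanotan II challenge | dosing = single nominal compound dose of 6.5 µM | detection = TR-FRET with Eu-cAMP and labeled anti-cAMP, 671 nm | replication = singlicate | timing = compound 30 min, challenge 1 h, detection 1 h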
NALP1 yeast inh: NALP1 inflammasome inhibitors in reconstituted yeast, colorimetric, S. cerevisiae, triplicate retest; S. cerevisiae NALP1/ASC/caspase-1 growth, X-gal OD620, 72 h; inhibition, % at 10 µM; hit rate 0.61% among 280,000; in the data active means inhibition mostly above about 24%, no sharp cut-off; inactive means mostly below about 32%
Starred values were filed as active, the others as inactive; ? = inconclusive; nt = no result.

By UniProt entry, the sequences of proteins in these tests, tags left out.
Melanocortin receptor 4 (Homo sapiens), P32245, UniProt P32245, whole entry, looked up: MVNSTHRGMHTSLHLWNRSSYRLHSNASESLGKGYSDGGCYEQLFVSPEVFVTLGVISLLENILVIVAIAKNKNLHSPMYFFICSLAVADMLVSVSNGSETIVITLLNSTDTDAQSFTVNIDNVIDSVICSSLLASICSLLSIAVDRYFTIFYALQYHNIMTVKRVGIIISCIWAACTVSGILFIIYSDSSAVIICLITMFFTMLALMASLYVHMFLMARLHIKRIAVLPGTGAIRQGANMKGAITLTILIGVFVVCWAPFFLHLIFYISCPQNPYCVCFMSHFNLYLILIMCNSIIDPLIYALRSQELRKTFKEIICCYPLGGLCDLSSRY

Values in the order: ALR inh | MC4R ag barr | HDAC3 inh | UUG fidelity | MC4R antag cAMP | NALP1 yeast inh
#1 COc1ccc(-c2cc3ccccc3oc2=O)cc1
→ -9.8 | 0.3 | -21.7 | -24.2 | 3.9 | nt
#2 C[C@H]1CCCCO[C@@H](CN(C)Cc2ccncc2)[C@@H](C)CN([C@@H](C)CO)C(=O)c2cc(NC(=O)Nc3ccc(C(F)(F)F)cc3)ccc2O1
→ nt | nt | nt | -4.4 | nt | nt
#3 CCN(CC)CCn1c2c(c(SCC(=O)Nc3ccc(C)c(F)c3)nc1=O)CCCC2
→ 97.0* | -1.7 | 0.4 | nt | 3.2 | nt
#4 CCN(CC)CCn1c2c(c(SCC(=O)Nc3ccccc3Cl)nc1=O)CCCC2
→ -16.1 | -1.0 | ? | nt | 10.3 | nt
#5 CCN(CC)CCCn1c2c(c(SCC(=O)Nc3ccccc3Cl)nc1=O)CCC2
→ 97.5* | -1.0 | 3.3 | 20.2 | 4.4 | nt
#6 CCN(CC)CCCn1c2c(c(SCC(=O)Nc3ccc4c(c3)OCO4)nc1=O)CCC2
→ 95.9* | -1.9 | 6.7 | -18.2 | 4.0 | nt
#7 CCN(CC)CCn1c2c(c(SCC(=O)Nc3ccc(F)c(F)c3)nc1=O)CCC2
→ 91.7* | -1.4 | 1.0 | -7.0 | 3.6 | nt
#8 CCN(CC)CCn1c2c(c(SCC(=O)Nc3ccc(C)c(F)c3)nc1=O)CCC2
→ -403.9 | -0.5 | 3.1 | -20.2 | 2.2 | nt
#9 COC(=O)C[C@H]1C[C@H]2c3cc(NS(=O)(=O)c4ccccc4)ccc3O[C@H]2[C@@H](CO)O1
→ nt | nt | nt | -8.9 | nt | nt
#10 CC(=O)N(C)C[C@@H]1Oc2cc(-c3ccccc3)ccc2S(=O)(=O)N([C@H](C)CO)C[C@@H]1C
→ nt | nt | nt | 28.8 | nt | nt
#11 CCN(CC)CCCn1c2c(c(SCC(=O)Nc3ccc(F)c(F)c3)nc1=O)CCC2
→ 97.8* | -2.5 | 3.9 | -2.2 | 10.7 | nt
#12 Cc1nn(-c2nc3ccccc3[nH]2)c(=O)c2ccccc12
→ -1.1 | -3.0 | 7.0 | nt | 17.7 | -3.4
#13 CC1(C)CC(=O)c2cnn(-c3nc4ccccc4[nH]3)c2C1
→ 93.7* | -0.1 | 2.6 | -5.2 | 5.7 | 1.3
#14 C=CCn1c(CNC(=O)c2cccs2)nnc1SCC(=O)c1ccc(Br)cc1
→ 86.2* | -1.1 | 2.0 | -11.8 | -2.2 | -2.8
#15 Cc1ccc(-n2c(CNC(=O)c3cccs3)nnc2SCC(=O)NO)cc1
→ 1.9 | 0.0 | 53.3* | -18.0 | 20.1 | -19.3

An excerpt from above in order of their number in ALR inh, highest first:
cpd	SMILES	ALR inh
3	CCN(CC)CCn1c2c(c(SCC(=O)Nc3ccc(C)c(F)c3)nc1=O)CCCC2	97.0*
12	Cc1nn(-c2nc3ccccc3[nH]2)c(=O)c2ccccc12	-1.1
1	COc1ccc(-c2cc3ccccc3oc2=O)cc1	-9.8

(next part)
Values in the order: ALR inh | MC4R ag barr | HDAC3 inh | UUG fidelity | MC4R antag cAMP | NALP1 yeast inh
#16 O=C(C[C@H]1CC[C@@H](NC(=O)c2ccc3c(c2)OCO3)[C@@H](CO)O1)NCc1ccc(Cl)cc1
→ nt | nt | nt | 6.9 | nt | nt
#17 C[C@H]1CN([C@@H](C)CO)C(=O)c2cc(C#CC3CCCCC3)cnc2O[C@@H]1CN(C)C(=O)C1CCCCC1
→ nt | nt | nt | 3.7 | nt | nt
#18 NNC(=S)NCc1cccnc1
→ ? | -2.1 | -3.5 | nt | 10.4 | 73.8*
#19 Cc1oc(-c2ccc(Cl)cc2)nc1CS(=O)CC(=O)NC1CC1 (stereo unspecified)
→ 98.7* | -2.8 | 4.0 | -5.5 | -1.9 | 14.7
#20 Cc1ccc(CS(=O)Cc2ccc(C(=O)NC3CCC(C)CC3)o2)cc1 (stereo unspecified)
→ 61.0 | -2.6 | 0.0 | -5.5 | -0.7 | 11.4
#21 Cc1ccc(-c2nc(CS(=O)CC(=O)NC3CCC(C)CC3)c(C)o2)cc1 (stereo unspecified)
→ 98.7* | 0.5 | 3.0 | -8.9 | 3.8 | 0.9
#22 Cc1oc(-c2ccc(Cl)cc2)nc1CN1CCC(C(=O)NCc2cccs2)CC1
→ nt | -0.8 | 3.1 | -5.7 | 7.5 | 8.1
#23 COc1ccc(-c2nc(CS(=O)(=O)CC(=O)NC3CCC(C)CC3)c(C)o2)cc1 (stereo unspecified)
→ 98.5* | 1.2 | 1.3 | -7.5 | 12.8 | 1.1
#24 CN1C(=O)c2cc(NC(=O)c3cccs3)ccc2OC[C@H]2O[C@H](CC(=O)O)CC[C@H]21
→ nt | nt | nt | -3.0 | nt | nt
#25 C[C@@H]1CN([C@H](C)CO)C(=O)c2cccc(NC(=O)Nc3ccccc3)c2O[C@@H]1CN(C)Cc1ccccc1
→ nt | nt | nt | 3.0 | nt | nt
#26 C(=N\Nc1ncnc2ccccc12)/c1ccccc1
→ 97.3* | -3.0 | 13.0 | -32.8 | 3.7 | 0.9
#27 CC(=O)c1ccc(-c2ccccc2OC(F)(F)F)o1
→ -8.3 | 2.2 | 1.4 | nt | 8.5 | 19.9
#28 O/N=C/c1ccc(-c2ccccc2OC(F)(F)F)o1
→ -5.2 | 1.0 | 10.4 | nt | -14.3 | 35.5*

Whole records, quoted from the list. Screens in order: ALR inh | MC4R ag barr | HDAC3 inh | UUG fidelity | MC4R antag cAMP | NALP1 yeast inh
Cc1ccc(-c2nc(CS(=O)CC(=O)NC3CCC(C)CC3)c(C)o2)cc1 (stereo unspecified) across the screens: 98.7* | 0.5 | 3.0 | -8.9 | 3.8 | 0.9
O/N=C/c1ccc(-c2ccccc2OC(F)(F)F)o1 across the screens: -5.2 | 1.0 | 10.4 | nt | -14.3 | 35.5*
